Test results published in US10258599B2, “Compounds for use in the prevention or treatment of cancer” (SEMMELWEIS UNIVERSITY, priority 2014, dated 2019).

The chains behind the UniProt entries cited, without tags or fusion partners.
UniProt P19643, whole entry: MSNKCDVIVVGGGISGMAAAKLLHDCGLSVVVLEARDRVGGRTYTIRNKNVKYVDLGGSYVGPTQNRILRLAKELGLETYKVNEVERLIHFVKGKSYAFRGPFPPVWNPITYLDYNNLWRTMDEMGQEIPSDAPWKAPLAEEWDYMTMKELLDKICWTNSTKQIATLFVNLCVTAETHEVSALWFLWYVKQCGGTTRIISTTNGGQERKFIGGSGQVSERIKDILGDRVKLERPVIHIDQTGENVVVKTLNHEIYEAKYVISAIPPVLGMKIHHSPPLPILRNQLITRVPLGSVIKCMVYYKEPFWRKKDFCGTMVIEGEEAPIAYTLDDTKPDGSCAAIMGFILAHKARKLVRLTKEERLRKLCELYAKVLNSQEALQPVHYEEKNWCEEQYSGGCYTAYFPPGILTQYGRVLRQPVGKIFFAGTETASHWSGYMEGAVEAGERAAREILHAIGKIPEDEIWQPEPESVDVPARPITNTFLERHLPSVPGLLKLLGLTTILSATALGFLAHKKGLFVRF

Tests used:
Daoy HTB-186 cell line = assay: MTT proliferation assay, Daoy medulloblastoma cells; assay type: cell-based, human; conditions: 10^-13 or 10^-8 M combined with temozolomide, Cisplatin, etoposide or Vincristin
Procedure: (§1) Human medulloblastoma cell line, Daoy was purchased from ATCCC, UW-228 was obtained from the courtesy of Professor Silber (Univerity of Washington, Seattle, Wash., USA).
(§2) Daoy and UW-228-2 cell lines were maintained in culture medium (each 500 ml Minimum Essential Medium Eagle, Alpha Modification (M8042, Sigma, St Louis, USA) with 50 ml FCS (Gibco), 40 mg Gentamicin (Sandoz), 5 ml sodium-pyruvate (S8636, Sigma, St Louis, USA), 5 ml non-essential-amino acid solution (M7145, Sigma, St Louis, USA), 10 ml L-glutamin (Sigma, St Louis, USA) at 37° C. in humified 5% CO2.
(§3) In each well 3×10^3 Daoy or UW-228-2 cells were seeded in 96-well plates (Sarstedt), solved in 100 μl of its own medium with 10% FCS. 24 hours after seeding, cells were treated for 72 hours by drugs solved in further 100 μl medium. […]
(§4) Cell proliferation was evaluated by MTT (3-(4,5-Dimethylthiazol-2-yl)-2,5-diphenyltetrazolium bromide) assay (M5655, Sigma) after 72-hour treatment by the method described in manufacturer's protocol.

MAO-B = biological target: T1, MAO-B (Rattus norvegicus, UniProt P19643); conditions: 0.25 mg/kg, earlier longevity studies; cited from earlier work
T1 construct: from tissue; host or cells: brain, in vivo dosing

UW-228-2 cell line = assay: MTT proliferation assay, UW-228-2 medulloblastoma cells; assay type: cell-based, human; conditions: UW-228-2, 10^-13 or 10^-8 M combined with temozolomide, Cisplatin, etoposide or Vincristin
Procedure: as §1, §2, §3, §4

## C#CCN(C)[C@H](C)Cc1ccccc1 [(−)-Deprenyl, (R)—N-methyl-N-(1-phenylpropan-2-yl)prop-2-yn-1-amine, reference compound]
Daoy HTB-186 cell line
  effectiveness of tumor-cell proliferation inhibiting agents in combination: did not change the effectiveness
MAO-B
  MAO-B activity in the brain: completely blocks
UW-228-2 cell line
  effectiveness of tumor-cell proliferation inhibiting agents in combination: did not change the effectiveness
